In this test the test system is SARS-COV-2. In words: SARS-COV-2 viral RNA synthesis in HuH-7 cells (real time RT-PCR). For orientation: In qPCR the cycle at which signal appears reflects the starting amount.

SI data for 1 compound are collected here from patent publication US20240207302A1, “ANTIVIRAL COMPOUNDS, METHODS FOR THE MANUFACTURING OF COMPOUNDS, ANTIVIRAL PHARMACEUTICAL COMPOSITION, USE OF THE COMPOUNDS AND METHOD FOR THE ORAL TREATMENT OF CORONAVIRUS INFECTION AND RELATED DISEASES THEREOF” (priority 2021, published 2024).

Structures are written as SMILES.

Compound `C/C(=C\CNc1ncnc2[nH]cnc12)CO` [MB-907, zeatin] gave an SI of 12000.
